# Yeast mating assay 2: variants of the scFv Ab-91

Data: MIT Lincoln Laboratory AlphaSeq set, Engelhart et al. 2022, doi:10.1038/s41597-022-01779-4, as distributed in FLAb.

All variants were tested on one target, the spike HR2 peptide PDVDLGDISGINAS (SARS-CoV-2).

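The parent was found by panning a naive human phage display library on the peptide. In library AAYL51, one, two or three CDR residues were substituted; doubles and triples were drawn at random. Affinity was read by AlphaSeq, a pooled yeast mating assay with surface-displayed partners. The frequency of each diploid, read from paired DNA barcodes, reflects how well the two displayed proteins bind. Scores were corrected for input abundance and mapped to Kd with protein pairs of known affinity run in the same pool. There are three technical replicates.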

Ab-91 is the parent antibody, in scFv form: VL, then a 15-residue (Gly4Ser)3 linker, then VH. The light chain is unchanged in all variants.
VL: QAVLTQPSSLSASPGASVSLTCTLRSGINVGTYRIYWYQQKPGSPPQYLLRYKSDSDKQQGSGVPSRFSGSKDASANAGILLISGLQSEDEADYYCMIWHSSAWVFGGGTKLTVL
VH: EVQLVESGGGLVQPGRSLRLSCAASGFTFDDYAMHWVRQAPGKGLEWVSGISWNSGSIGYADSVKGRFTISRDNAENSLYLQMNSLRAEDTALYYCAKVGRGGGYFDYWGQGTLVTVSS

The parent's heavy chain CDRs are GFTFDDYAMH, GISWNSGSIGYADSVK, VGRGGGYFDY; each variant's own CDRs replace them letter for letter.
Scale: log10 of Kd in nM, estimated from mating counts; low values are strong binders.
Replicates are averaged; those with no signal do not enter the mean.
"ND" means that the variant was in the library but no mating with the target was seen in that replicate; the authors take this as a sign of poor binding, and no number exists.
Empty control strains, which show no peptide, gave a signal in 21% of pairings with library AAYL51; the median was 4.54 and 95% of these signals were weaker than 3.26. No background was subtracted. Also given: how often the same scFv was detected with the empty control strains, with their mean in brackets.

{"CDR-H1": "GFTFHDYAMH", "CDR-H2": "GISWNSGSIGYADSVK", "CDR-H3": "VGRGGGYIDK", "replicates, log10 nM": "4.98 / 4.24 / 5.61", "mean, log10 nM": "4.94", "signal with controls": "6 of 9 (5.39)"}
{"CDR-H1": "GFGFDFYAHH", "CDR-H2": "GISWNSGSIGYADSVK", "CDR-H3": "VGRGGGYFDY", "replicates, log10 nM": "ND / 5.02 / ND", "mean, log10 nM": "5.02", "signal with controls": "2 of 9 (4.46)"}
{"CDR-H1": "GFTFDDYAMH", "CDR-H2": "VIKWNSGSIGYADSVK", "CDR-H3": "CGRGGGYFDY", "replicates, log10 nM": "ND / ND / ND", "mean, log10 nM": "ND", "signal with controls": "2 of 9 (4.54)"}
{"CDR-H1": "GFTFDDYAMH", "CDR-H2": "GISWCSQSIGYADSVK", "CDR-H3": "VGRGGGYFDY", "replicates, log10 nM": "4.07 / ND / ND", "mean, log10 nM": "4.07", "signal with controls": "0 of 9"}
{"CDR-H1": "GFQFDDFAMH", "CDR-H2": "GISWNSGSIGGADSVK", "CDR-H3": "VGRGGGYFDY", "replicates, log10 nM": "ND / 3.43 / ND", "mean, log10 nM": "3.43", "signal with controls": "1 of 9 (2.97)"}
{"CDR-H1": "GFTFDDYAMH", "CDR-H2": "GISWNSGSYGYADSVK", "CDR-H3": "VGRGGGYFDR", "replicates, log10 nM": "1.52 / 1.27 / 1.07", "mean, log10 nM": "1.28", "signal with controls": "4 of 9 (4.35)"}
{"CDR-H1": "VFTFDDYFMH", "CDR-H2": "GISWNSGSIGYADDVK", "CDR-H3": "VGRGGGYFDY", "replicates, log10 nM": "4.20 / 5.64 / 5.02", "mean, log10 nM": "4.95", "signal with controls": "5 of 9 (4.97)"}
{"CDR-H1": "GFTFRDYAMH", "CDR-H2": "GISWNSGSIGYADLVM", "CDR-H3": "VGRGGGYFDY", "replicates, log10 nM": "1.63 / 1.67 / 1.52", "mean, log10 nM": "1.60", "signal with controls": "1 of 9 (5.39)"}
{"CDR-H1": "GFTFDDYAMH", "CDR-H2": "GISWNSCVIGYTDSVK", "CDR-H3": "VGRGGGYFDY", "replicates, log10 nM": "ND / ND / ND", "mean, log10 nM": "ND", "signal with controls": "1 of 9 (3.26)"}
{"CDR-H1": "GFTFDDYAMH", "CDR-H2": "GITWNSGSIGYAKSVK", "CDR-H3": "VGRGGGYGDY", "replicates, log10 nM": "ND / 6.06 / ND", "mean, log10 nM": "6.06", "signal with controls": "4 of 9 (4.80)"}
{"CDR-H1": "GFTFDDYYMH", "CDR-H2": "GISWNSGSIGYADSWK", "CDR-H3": "VGRGGGYFFY", "replicates, log10 nM": "ND / ND / ND", "mean, log10 nM": "ND", "signal with controls": "0 of 9"}
{"CDR-H1": "GFTFDDYAMH", "CDR-H2": "GISWNSGSIGYADKVK", "CDR-H3": "VITGGGYFDY", "replicates, log10 nM": "1.50 / 1.31 / 1.34", "mean, log10 nM": "1.38", "signal with controls": "3 of 9 (3.60)"}
{"CDR-H1": "GFTFDDYAMH", "CDR-H2": "GSSWNQGSIGYADSPK", "CDR-H3": "VGRGGGYFDY", "replicates, log10 nM": "5.90 / ND / ND", "mean, log10 nM": "5.90", "signal with controls": "2 of 9 (4.36)"}
{"CDR-H1": "GFTFDDYAMH", "CDR-H2": "GISWNSGSRGYCDSVK", "CDR-H3": "VGRGGIYFDY", "replicates, log10 nM": "ND / ND / ND", "mean, log10 nM": "ND", "signal with controls": "0 of 9"}
{"CDR-H1": "GFTADDYAMH", "CDR-H2": "GISWNSGCIGYADSVK", "CDR-H3": "VGRGGGYFEY", "replicates, log10 nM": "ND / ND / ND", "mean, log10 nM": "ND", "signal with controls": "0 of 9"}
{"CDR-H1": "GFTFDDYFMH", "CDR-H2": "GISWNSGSIGYADSVK", "CDR-H3": "VGRGGGWFDI", "replicates, log10 nM": "ND / ND / 4.86", "mean, log10 nM": "4.86", "signal with controls": "1 of 9 (4.44)"}
{"CDR-H1": "GFTFDDDAMH", "CDR-H2": "GISWNLGTIGYADSVK", "CDR-H3": "VGRGGGYFDY", "replicates, log10 nM": "3.59 / 5.06 / 5.12", "mean, log10 nM": "4.59", "signal with controls": "8 of 9 (4.86)"}
{"CDR-H1": "GETFDDYAMH", "CDR-H2": "GIPWNSGSSGYADSVK", "CDR-H3": "VGRGGGYFDY", "replicates, log10 nM": "4.50 / 4.49 / ND", "mean, log10 nM": "4.49", "signal with controls": "0 of 9"}
{"CDR-H1": "GFTFVDYAMH", "CDR-H2": "GISWNSGSIIYADSVK", "CDR-H3": "VGRNGGYFDY", "replicates, log10 nM": "5.07 / ND / ND", "mean, log10 nM": "5.07", "signal with controls": "3 of 9 (4.19)"}
{"CDR-H1": "GFTFDDYNMH", "CDR-H2": "GISWNSGSIGYADSVK", "CDR-H3": "VGRGGGYFDY", "replicates, log10 nM": "3.36 / ND / ND", "mean, log10 nM": "3.36", "signal with controls": "0 of 9"}
{"CDR-H1": "GFTFDDYEMH", "CDR-H2": "GWSWNSGSIGYADSVK", "CDR-H3": "VGRGGYYFDY", "replicates, log10 nM": "ND / ND / ND", "mean, log10 nM": "ND", "signal with controls": "2 of 9 (5.18)"}
{"CDR-H1": "GFTFFDYAMH", "CDR-H2": "GISWHSGSIGYADSVK", "CDR-H3": "VGNGGGYFDY", "replicates, log10 nM": "4.19 / 4.85 / 5.29", "mean, log10 nM": "4.78", "signal with controls": "6 of 9 (5.55)"}
{"CDR-H1": "GFTFDSYAMH", "CDR-H2": "GHSWNSGSIGYADSVK", "CDR-H3": "VGRGGGYFKY", "replicates, log10 nM": "ND / ND / ND", "mean, log10 nM": "ND", "signal with controls": "4 of 9 (5.05)"}

3 of these entries, quoted again:

{"CDR-H1": "GFGFDFYAHH", "CDR-H2": "GISWNSGSIGYADSVK", "CDR-H3": "VGRGGGYFDY", "replicates, log10 nM": "ND / 5.02 / ND", "mean, log10 nM": "5.02", "signal with controls": "2 of 9 (4.46)"}
{"CDR-H1": "GFQFDDFAMH", "CDR-H2": "GISWNSGSIGGADSVK", "CDR-H3": "VGRGGGYFDY", "replicates, log10 nM": "ND / 3.43 / ND", "mean, log10 nM": "3.43", "signal with controls": "1 of 9 (2.97)"}
{"CDR-H1": "GFTFDDYAMH", "CDR-H2": "GISWCSQSIGYADSVK", "CDR-H3": "VGRGGGYFDY", "replicates, log10 nM": "4.07 / ND / ND", "mean, log10 nM": "4.07", "signal with controls": "0 of 9"}

Parent in this assay: reference entry 1.86, copy in this library 0.88.